Results reported in US10882867B2, “Forms and compositions of a MK2 inhibitor” (Celgene CAR LLC, priority 2017, dated 2021).
Entries after “also recorded” stand apart in the source; their conditions may differ.

By UniProt entry, the sequences of proteins in these tests, tags left out.
UniProt P49137, whole entry: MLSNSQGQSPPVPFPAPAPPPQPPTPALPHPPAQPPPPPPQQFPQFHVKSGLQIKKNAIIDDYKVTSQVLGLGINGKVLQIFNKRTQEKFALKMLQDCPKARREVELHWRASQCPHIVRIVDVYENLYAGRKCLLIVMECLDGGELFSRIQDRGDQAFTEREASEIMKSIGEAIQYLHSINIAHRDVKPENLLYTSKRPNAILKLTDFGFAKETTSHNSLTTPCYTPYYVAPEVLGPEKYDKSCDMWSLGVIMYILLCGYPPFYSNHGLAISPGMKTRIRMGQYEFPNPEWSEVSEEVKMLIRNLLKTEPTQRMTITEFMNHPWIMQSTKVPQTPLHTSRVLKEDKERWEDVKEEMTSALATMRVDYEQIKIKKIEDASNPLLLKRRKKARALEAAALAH

Experiments:
[1] = Form conversion (form transfer) experiments: slurry, compression, heating, humidity cycle; assay type: physicochemical; details: conclusion from form transfer, heat and humidity stress experiments
Experimental: Form conversion experiments were performed to determine interconversion among solid forms.
The schematic inter-conversion among crystalline forms of Compound 1 is depicted in FIG. 48.
The stability of Form A was further characterized by compression test and form transfer experiments (Table 6). Upon application of 2000-psi pressure for about 1 minute, the material was still Form A, with broader diffraction peaks (FIG. 42(c)).

MK2 [2] = target: T1, MK2 (Homo sapiens, UniProt P49137); details: enzymatic and cellular assays
MK2 [3] = target: T1, MK2; details: Thp-1 human acute monocytic leukemia cells

SMILES | Relative stability of the crystalline form [1] | Inhibition of MK2 kinase (MK2 [2]) | Inhibition of MK2 (MK2 [3])
CCOCc1cnc(Cl)nc1Oc1ccc2c(ccc3sc4c(c32)NC[C@@H](C)NC4=O)n1 [Form A, (R)-3-((2-chloro-5-(ethoxymethyl)pyrimidin-4-yl)oxy)-10-methyl-9,10,11,12-tetrahydro-8H-[1,4]diazepino[5′,6′:4,5]thieno[3,2-f]quinolin-8-one] | most stable anhydrate form; also recorded: most stable anhydrous form |  | 
CCOCc1cnc(Cl)nc1Oc1ccc2c(ccc3sc4c(c32)NC[C@@H](C)NC4=O)n1 [Compound 1, (R)-3-((2-chloro-5-(ethoxymethyl)pyrimidin-4-yl)oxy)-10-methyl-9,10,11,12-tetrahydro-8H-[1,4]diazepino[5′,6′:4,5]thieno[3,2-f]quinolin-8-one] |  | covalent, irreversible inhibition | inhibit
CCOCc1cnc(Cl)nc1Oc1ccc2c(ccc3sc4c(c32)NC[C@@H](C)NC4=O)n1 [Form D, (R)-3-((2-chloro-5-(ethoxymethyl)pyrimidin-4-yl)oxy)-10-methyl-9,10,11,12-tetrahydro-8H-[1,4]diazepino[5′,6′:4,5]thieno[3,2-f]quinolin-8-one] | metastable anhydrate |  | 
CCOCc1cnc(Cl)nc1Oc1ccc2c(ccc3sc4c(c32)NC[C@@H](C)NC4=O)n1 [Form C, (R)-3-((2-chloro-5-(ethoxymethyl)pyrimidin-4-yl)oxy)-10-methyl-9,10,11,12-tetrahydro-8H-[1,4]diazepino[5′,6′:4,5]thieno[3,2-f]quinolin-8-one] | metastable hydrate |  | 
CCOCc1cnc(Cl)nc1Oc1ccc2c(ccc3sc4c(c32)NC[C@@H](C)NC4=O)n1 [Form B, (R)-3-((2-chloro-5-(ethoxymethyl)pyrimidin-4-yl)oxy)-10-methyl-9,10,11,12-tetrahydro-8H-[1,4]diazepino[5′,6′:4,5]thieno[3,2-f]quinolin-8-one] | metastable anhydrate |  | 
